Patent US20160076075A1 (priority 2014, published 2016)
Some compounds may have been tested in ways that are not shown here.

Tested on: IMCSzyme™ (recombinant glucuronidase)
Assay: IMCSzyme hydrolysis of buprenorphine and norbuprenorphine glucuronides
Format: biochemical
Settings: summary of Table 1

Substance: Norbuprenorphine Glucuronide
- Cleavage by the recombinant enzyme (in words): requiring some time and heat to cleave
